Measured values from US20110033516A1, “METHODS AND COMPOSITIONS FOR BONE HEALING BY PERIOSTIN” (Medical University of South Carolina, priority 2009, published 2011).

Tests used:
primary fibroblasts = assay: 3D collagen gel migration assay with hanging drop aggregates; type: cell-based; details: aggregates of 50,000 cells/20 μl on collagen I hydrogels (1.5 mg/ml), exogenous factors
Protocol: FIG. 11 Periostin promotes migration of primary fibroblasts in 3D collagen gel assays. Hanging drop aggregates (50,000 cells/20 μl) were placed on top of collagen I hydrogels (1.5 mg/ml) and assayed for their ability to respond to exogenous factors (TGFβ3, BMP2, and periostin). […] Pictures above the graph lines show representative images of the stimulated cultures with the cell migratory boundaries outlined.
The 3-D migration and invasion assay will use the same cells but aggregate them using a hanging drop method overnight. […] The number of cells that have migrated out from the aggregate and the distance migrated on the top of the gel are the first order parameters of migration.

rat osteoblast cells = assay: Standard wounding / scratch migration assay; type: cell-based
Protocol: FIG. 10 Periostin promotes osteoblast cell migration. […] Tissue culture dishes were coated with either collagen, or collagen with titrating amounts of periostin. Cells were plated and allowed to adhere for 24 hours. A standard “wounding” or “scratch assay” was performed and measurements of cell migration into the scratch area were obtained.
The ability of periostin to promote migration of osteoblast cells in culture was ascertained utilizing a standard “wounding” assay. For this, a monolayer of rat osteoblast cells was plated on either plastic, collagen or collagen plus titrating amounts of periostin. A small scratch was made (with a P200 tip) through the middle of the monolayer and the cells were allowed to migrate into the “wounded” area for up to 48 hours.

B1: BMP-2: bone morphogenic protein, member of the TGF-β superfamily of polypeptides (protein, UniProt P12643 283-396, looked up)
Bone morphogenetic protein 2: QAKHKQRKRLKSSCKRHPLYVDFSDVGWNDWIVAPPGYHAFYCHGECPFPLADHLNSTNHAIVQTLVNSVNSKIPKACCVPTELSAISMLYLDENEKVVLKNYQDMVVEGCGCR
fold-change in area of migration (primary fibroblasts): promoted migration
cell migration into the scratch area (rat osteoblast cells; dishes coated with plastic, collagen, or collagen plus titrating amounts of periostin, BMP-2 titrated, up to 48 hours): decrease in migration compared to periostin
proliferation (rat osteoblast cells; scratch assays in the presence of titrating amounts of BMP-2): significant increase
